In ChEMBL document CHEMBL1129348, “Effects of modifications of residues in position 3 of dynorphin A(1-11)-NH2 on kappa receptor selectivity and potency” (J Med Chem, 1996):

Assays:
[1] = tested on: Opioid receptors delta & kappa (Cavia porcellus); assay: Selectivity ratio between delta and kappa opioid receptor from guinea pig brain homogenate
[2] = tested on: Opioid receptors mu & kappa (Cavia porcellus); assay: Selectivity ratio between mu and kappa opioid receptor from guinea pig brain homogenate
[3] = Ratio between IC50 of GPI and GPB; format: functional

| Compound | Ratio [1] | Ratio [2] | Ratio [3] |
| --- | --- | --- | --- |
| CC[C@H](C)[C@H](NC(=O)[C@H](CCCN=C(N)N)NC(=O)[C@H](CCCN=C(N)N)NC(=O)[C@H](CC(C)C)NC(=O)[C@H](Cc1ccccc1)NC(=O)[C@@H](NC(=O)CNC(=O)[C@@H](N)Cc1ccc(O)cc1)[C@@H](C)c1c(C)cccc1C)C(=O)N[C@@H](CCCN=C(N)N)C(=O)N1CCC[C@H]1C(=O)N[C@@H](CCCCN)C(N)=O | 40 | 25 |  |
| CC[C@H](C)[C@H](NC(=O)[C@H](CCCN=C(N)N)NC(=O)[C@H](CCCN=C(N)N)NC(=O)[C@H](CC(C)C)NC(=O)[C@H](Cc1ccccc1)NC(=O)[C@H](NC(=O)CNC(=O)[C@@H](N)Cc1ccc(O)cc1)[C@@H](C)c1c(C)cccc1C)C(=O)N[C@@H](CCCN=C(N)N)C(=O)N1CCC[C@H]1C(=O)N[C@@H](CCCCN)C(N)=O | 22 | 19 | 22 |
| CC[C@H](C)[C@H](NC(=O)[C@H](CCCN=C(N)N)NC(=O)[C@H](CCCN=C(N)N)NC(=O)[C@H](CC(C)C)NC(=O)[C@H](Cc1ccccc1)NC(=O)[C@@H](Cc1ccc(O)cc1)NC(=O)CNC(=O)[C@@H](N)Cc1ccc(O)cc1)C(=O)N[C@@H](CCCN=C(N)N)C(=O)N1CCC[C@H]1C(=O)N[C@@H](CCCCN)C(N)=O | 240 | 28 |  |
| CC[C@H](C)[C@H](NC(=O)[C@H](CCCN=C(N)N)NC(=O)[C@H](CCCN=C(N)N)NC(=O)[C@H](CC(C)C)NC(=O)[C@H](Cc1ccccc1)NC(=O)[C@H](Cc1ccc(O)cc1)NC(=O)CNC(=O)[C@@H](N)Cc1ccc(O)cc1)C(=O)N[C@@H](CCCN=C(N)N)C(=O)N1CCC[C@H]1C(=O)N[C@@H](CCCCN)C(N)=O | > 1100 | 33 |  |
